Experimental data published in PubChem BioAssay AID1961 (Sanford-Burnham Center for Chemical Genomics, 2009).
This is a selection; strong and weak results do not stand in their true shares. Activity calls are given as the source filed them.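 The calls were made as follows: active = activation above 40% with more than 50 cells counted in the well; inconclusive = wells holding fewer than 50 cells, flagged as toxic or sparse; inactive = the rest.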

Sequences of proteins named here, by UniProt entry; tags and fusion partners are left off.
UniProt Q9Y2T6, whole entry: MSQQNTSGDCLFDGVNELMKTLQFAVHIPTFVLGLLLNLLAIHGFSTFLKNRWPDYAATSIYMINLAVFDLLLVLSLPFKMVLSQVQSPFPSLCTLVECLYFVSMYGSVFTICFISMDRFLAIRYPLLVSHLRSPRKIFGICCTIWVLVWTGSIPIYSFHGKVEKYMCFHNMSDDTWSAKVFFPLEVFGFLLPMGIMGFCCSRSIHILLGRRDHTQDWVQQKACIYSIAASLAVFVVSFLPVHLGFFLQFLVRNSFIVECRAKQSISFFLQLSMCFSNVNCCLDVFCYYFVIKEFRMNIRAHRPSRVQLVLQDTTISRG

What follows are compounds tested against G-protein coupled receptor 55 (Homo sapiens) (UniProt Q9Y2T6) (assay: selective activators of receptor GPR55 – imaging, U2OS cells, beta-arrestin-GFP redistribution, primary screen (AID 1961;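 also: U2OS osteosarcoma cells stably expressing GPR55 and beta-arrestin-GFP; plate controls were DMSO negative control for no effect and LPI positive control for full effect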)). Conditions: at 10 µM, active compounds read high.

Structure (SMILES)	activation
Cc1cc(C)cc(N(C(=O)c2ccccc2)C2CCN(C(=O)OC(C)(C)C)CC2)c1	inactive: 0%
O=C(NCC1(N2CCOCC2)CCCCC1)c1cc2ccccc2o1	inactive: -0.1%
O=C(OC1CN2CCC1CC2)C1c2ccccc2Oc2ccccc21 (centres undefined)	inactive: 0.3%
N#CC1(Nc2ccccc2)CCN(Cc2ccccc2)CC1	inactive: 0.3%
CCOC(=O)N1CCC(Nc2ccc(OC)cc2)CC1	inactive: -0.4%
CC(C)(C)OC(=O)N1CCC(N(C(=O)c2ccccc2)c2ccc(F)cc2)CC1	inactive: -0.1%
COc1ccc(C(=O)NCC2(N3CCCCC3)CCCCC2)c(OC)c1OC	inactive: -0.2%
COc1ccc(C(=O)NCC2(N3CCCCC3)CCCCC2)cc1	inactive: 0.1%
O=C(NCC1(N2CCCCC2)CCCCC1)c1ccc(=O)[nH]c1	inactive: -0.1%
CSc1ccccc1C(=O)NCC1(N2CCCCC2)CCCCC1	inactive: -0.2%
Cc1ccc(OCC(C)C)c(CN(CCCl)CCCl)c1	inactive: 0.3%
COc1cc(C(=O)NCC2(N(C)C)CCCCC2)ccc1OC(F)F	inactive: 0%
CCOC(=O)N1CCC(Nc2cccc(C)c2)CC1	inactive: -0.1%
CCOc1ccc(C)cc1CN(CCCl)CCCl	inactive: 0.2%
CCOC(=O)N1CCC(Nc2ccc(F)cc2)CC1	inactive: 1.2%
COc1ccc(NC2CCN(CCc3ccccc3)CC2)c(OC)c1	inactive: -0.1%
O=C(NCC1(N2CCCCC2)CCCCC1)c1ccc(F)cc1	inactive: -0.1%
O=C(NCC1(N2CCCCC2)CCCCC1)c1cccc(C(F)(F)F)c1	inactive: -0.2%
O=C(NCC1(N2CCOCC2)CCCCC1)c1cc(=O)[nH]c2ccccc12	inactive: -0.2%
COc1cc(C(=O)NCC2(N3CCCCC3)CCCCC2)ccc1OC(F)F	inactive: -0.2%
COc1ccc(NC2CCN(C(=O)OC(C)(C)C)CC2)cc1	inactive: -0.2%
CN1CCN(CCOC(=O)C(O)(c2ccccc2)c2ccccc2)CC1	inactive: -0.2%
O=C(NCC1(N2CCCCC2)CCCCC1)c1ccc(OC(F)F)cc1	inactive: 0%
N#CC1(Nc2ccccc2)CCN(CCc2ccccc2)CC1	inactive: 0.3%
CCN1CCC(Nc2ccc(Cl)cc2)CC1	inactive: -0.1%
O=C(NCC1(N2CCCCC2)CCCCC1)c1cccc([N+](=O)[O-])c1	inactive: 0.1%
CCCOc1ccc(C(=O)NCC2(N(C)C)CCCCC2)cc1OC	inactive: 0%

Structure (SMILES)	activation
CC(C)c1ccc(NC2CCN(C(=O)OC(C)(C)C)CC2)cc1	inactive: 1%
CN(C)c1cccc(C(=O)NCC2(N3CCCCC3)CCCCC2)c1	inactive: 0%
COc1ccc(CN(CCCl)CCCl)cc1Cl	inactive: -0.1%
COc1cc(OC)c(C(=O)NCC2(N(C)C)CCCCC2)cc1OC	inactive: -0.1%
CCOC(=O)N1CCC(Nc2ccc(C)cc2)CC1	inactive: -0.2%
N/C(=N\O)c1c(N)no[n+]1[O-]	inactive: -0.2%
O=C(OC1CN2CCC1CC2)C1c2ccccc2C=Cc2ccccc21 (centres undefined)	inactive: -0.3%
COc1ccc(C(=O)NCC2(N3CCOCC3)CCCCC2)cc1OC	inactive: 0.1%
CN(C)C1(CNC(=O)c2cccc(C#N)c2)CCCCC1	inactive: -0.1%
CCCN1CCC(Nc2cc(OC)cc(OC)c2)CC1	inactive: 0.3%
c1ccc(CN2CCC(Nc3ccccc3)CC2)cc1	inactive: 0%
N#Cc1ccc(C(=O)NCC2(N3CCCCC3)CCCCC2)cc1	inactive: -0.6%
CC(C)(C)OC(=O)N1CCC(N(C(=O)c2ccccc2)c2ccc(Cl)cc2)CC1	inactive: -0.1%
CCN1CCC(Nc2cccc(F)c2)CC1	inactive: 0.1%
CN(C)c1ccc(C(=O)NCC2(N3CCCCC3)CCCCC2)cc1	inactive: -0.2%
COc1cc(OC)cc(C(=O)NCC2(N3CCCCC3)CCCCC2)c1	inactive: -0.1%
Fc1ccccc1NC1CCN(Cc2ccccc2)CC1	inactive: -0.2%
COc1cccc(C(=O)N(c2cc(C)cc(C)c2)C2CCN(C(=O)OC(C)(C)C)CC2)c1	inactive: -0.1%
COc1cc(OC)cc(C(=O)NCC2(N3CCOCC3)CCCCC2)c1	inactive: -0.7%
CCC(CO)(C(=O)OC1CN2CCC1CC2)c1ccccc1 (centres undefined)	inactive: -0.2%
CN1CCC(Nc2ccc(Cl)cc2)CC1	inactive: -0.1%
CCCOc1ccc(C)cc1CN(CCCl)CCCl	inactive: -0.1%
CN1CCC(Nc2ccc(F)c(Cl)c2)CC1	inactive: -0.2%
CCOc1ncccc1C(=O)NCC1(N2CCOCC2)CCCCC1	inactive: 0.2%
O=C(O)C1(Nc2ccccc2)CCN(Cc2ccccc2)CC1	inactive: 0.3%
CC(C)(C)OC(=O)N1CCC(Nc2ccccc2)CC1	inactive: -0.2%
CCCOc1ccc(C(=O)NCC2(N(C)C)CCCCC2)cc1	inactive: 0%
